Target: recombinant RORγ Ligand Binding Domain (LBD) protein (Homo sapiens (Human), UniProt P51449)
Experiment: Radio-Ligand RORγ Binding Assay (Assay 1)
Conditions: radio-ligand 25-hydroxy [26,27-3H]-cholesterol competition
Experimental: Radio-Ligand RORγ Binding Assay (Assay 1)
Compounds described herein were tested for ability to bind to RORγ in a cell-free competition assay with commercially available radio-ligand (RL), 25-hydroxy [26,27-^3H]-cholesterol (PerkinElmer, Cat. # NET674250UC), for a ligand binding site on a recombinant RORγ Ligand Binding Domain (LBD) protein expressed as a 6×His-Glutathione-S-Transferase (GST) fusion. […] The plate was shaken at 700 rpm for 20 min and incubated for 10 min at rt, after which 40 μL of poly-Lys YSi SPA beads (PerkinElmer, Cat. # RPNQ0010) were added to achieve 50 μg of the beads per well. The plate was incubated on an orbital shaker for 20 min and then for 10 min without agitation at rt. SPA signal for tritium beta radiation was registered on PerkinElmer Microbeta plate reader. […] The percent inhibition vs. concentration data were fit into a four-parameter model, and IC50 values were calculated from the fit as the concentrations corresponding to the inflection points on the dose-response curves. […]

Sequences of proteins named here, by UniProt entry; tags and fusion partners are left off. Residues count along the entry.
UniProt P51449, 269-508: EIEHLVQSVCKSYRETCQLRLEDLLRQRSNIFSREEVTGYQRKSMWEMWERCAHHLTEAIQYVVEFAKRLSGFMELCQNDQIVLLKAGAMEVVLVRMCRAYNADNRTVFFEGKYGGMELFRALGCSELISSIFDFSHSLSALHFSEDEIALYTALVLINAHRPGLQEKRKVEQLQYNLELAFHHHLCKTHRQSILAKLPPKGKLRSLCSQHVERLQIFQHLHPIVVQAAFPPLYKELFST

SMILES | Ki
CCS(=O)(=O)c1ccc(CNC(=O)c2ccc3c(c2)nc(C(O)[C@H]2CC[C@H](C(F)(F)F)CC2)n3C2CC2)cc1 (single isomer, unassigned) [BE-63.1, 1-cyclopropyl-N-(4-(ethylsulfonyl)benzyl)-2-(hydroxy(trans-4-(trifluoromethyl)cyclohexyl)methyl)-1H-benzo[d]imidazole-5-carboxamide] | > 1000 nM
CCS(=O)(=O)c1ccc(CNC(=O)c2ccc3c(c2)nc(C(O)[C@H]2CC[C@H](C(F)(F)F)CC2)n3C2CC2)cc1 (single isomer, unassigned) [BE-63.2, 1-cyclopropyl-N-(4-(ethylsulfonyl)benzyl)-2-(hydroxy(trans-4-(trifluoromethyl)cyclohexyl)methyl)-1H-benzo[d]imidazole-5-carboxamide] | 100 to 1000 nM
CCS(=O)(=O)c1ccc([C@H](CO)NC(=O)c2ccc3c(c2)nc(C(=O)N2CCC(C(F)(F)F)CC2)n3C2CC2)cc1 [BE-62, (R)-1-cyclopropyl-N-(1-(4-(ethylsulfonyl)phenyl)-2-hydroxyethyl)-2-(4-(trifluoromethyl)piperidine-1-carbonyl)-1H-benzo[d]imidazole-5-carboxamide] | 100 to 1000 nM
